From ChEMBL document CHEMBL5380861, “Design and Synthesis of Orexin 1 Receptor-Selective Agonists” (J Med Chem, 2023) come the findings set out here.

Assay type in all cases: functional, organism-based
Assay [1] concerns Mus musculus. Briefly: Antinociceptive activity in thermal stimulated OX1R-knockout mouse at 60 mg/kg, sc measured after 30 mins by tail flick test. In general terms: In hot-plate and tail-flick tests a longer latency is read as antinociception.
The test system of assay [2] is Mus musculus. The assay can be described thus: Reinforcing effect on OX1R knock out mouse assessed as place preference at 40 mg/kg, sc administered each day by CPP test.
The subject of assay [3] is Mus musculus. Briefly: Reinforcing effect on mouse assessed as place preference at 40 mg/kg, sc administered each day by CPP test.
The subject of assay [4] is Mus musculus. Briefly: Antinociceptive activity in thermal stimulated sc dosed mouse measured after 30 mins by tail flick test. The conditions noted are these: dose 20-60 mg/kg.

Active and inactive are the calls of the source. The rule behind the calls is not given here.

For `COc1cccc(CC(=O)N(C)[C@@H]2CCCc3ccc(NS(=O)(=O)c4cc(/C=C/C(=O)Nc5ccncc5)ccc4OC)cc32)c1`, the result in the assay on Mus musculus [1] and in the assay on Mus musculus [2] was inactive. In addition, in the assay on Mus musculus [3], the result was Active. In addition, the Activity entry with Mus musculus [4] is “Dose-Dependent Effect”.

Regarding `COc1cccc(CC(=O)N(C)[C@H]2CCCc3ccc(NS(=O)(=O)c4cc(-c5cccc(C(=O)N(C)C)c5)ccc4OC)cc32)c1`, the outcome in the assay with Mus musculus [3] was inactive.

Turning to `COc1cccc(CC(=O)N(C)[C@@H]2CCCc3ccc(NS(=O)(=O)c4cc(-c5cccc(C(=O)N(C)C)c5)ccc4OC)cc32)c1`, the outcome in the assay with Mus musculus [3] was Active.
